Experimental data taken from paper PMC7589326, “Synthesis and Pharmacological Evaluation of Fluorinated Quinoxaline‐Based κ‐Opioid Receptor (KOR) Agonists Designed for PET Studies” (Chemmedchem, 2020).

What was measured:
[1] = target: T1, DOR (Rattus norvegicus, UniProt P33533); conditions: read-out: Ki DOR [3H]DPDPE; rat brain membrane preparations; cited from earlier work
[2] = tested on: MOG induced EAE; conditions: mice; cited from earlier work
[3] = target: T2, KOR (Cavia porcellus, UniProt P41144); conditions: read-out: Ki±SEM KOR [3H]U-69,593; guinea pig brain membrane preparations; cited from earlier work
[4] = target: T2, KOR; test: KOR competitive receptor binding assay with [3H]U-69,593; design: species or system guinea pig; conditions: for KOR:DOR selectivity: from Ki values; for Ki: read-out: Ki±SEM KOR [3H]U-69,593, guinea pig brain membrane preparations
[5] = target: T3, KOR (Homo sapiens, UniProt P41145); test: cAMP inhibition assay (GloSensor, HEK 293T cells); type: cell-based; conditions: human HEK 293T cells; for EC50: read-out: cAMP EC50
[6] = tested on: mouse DCs (wild-type); test: Maturation and activation of PMA/ionomycin-stimulated mouse DCs (flow cytometry); type: cell-based; conditions: activated mouse DCs, 1 or 5 μg/mL, vs. PMA/Iono
[7] = target: T1, DOR; test: DOR receptor binding assay with [3H]DPDPE; conditions: read-out: Ki±SEM DOR [3H]DPDPE; rat brain membrane preparations
[8] = target: T3, KOR; test: Tango β-arrestin-2 recruitment assay (HTLA cells); type: cell-based; conditions: for EC50: read-out: β-Arrestin-2 EC50; for β-Arrestin-2 E max: refers to U-50,488 (100 % intrinsic activity)
[9] = tested on: mouse T cells (wild-type); conditions: for expression of surface activation markers CD25, CD44 and CD69 and IFN-γ production: 5 μg/mL
[10] = tested on: human DCs; test: Maturation and activation of PMA/ionomycin-stimulated human DCs; type: cell-based; conditions: 5 μM/mL each, 48 h after PMA/Iono 12 h, n=4 donors
[11] = tested on: DCs from KOR-deficient mice; conditions: 5 μg/mL
[12] = tested on: T cells from KOR-deficient mice; test: Activation of PMA/ionomycin-stimulated T cells from KOR-deficient mice; type: cell-based, mouse; conditions: 5 μg/mL

O=C(Cc1ccc(Cl)c(Cl)c1)N1CCNC2CCCC(N3CCCC3)C21 (centres unmarked)
Ki [1]: 205 nM
protection from MS-like symptoms / disease severity in EAE [2]: almost complete protection
Ki [3]: 0.54 nM

O=C(Cc1ccc(Cl)c(Cl)c1)N1CCN[C@@H]2CCC[C@@H](N3CC[C@H](O)C3)[C@@H]21
KOR:DOR selectivity [4]: more than 100 fold
Ki [4]: < 10 nM
Ki ([4]; listed as 12 b): 2 nM
cAMP E max ([5]; refers to U-50,488 (100 % intrinsic activity), listed as 12 b): 102%
EC50 [5]: 0.2 nM
expression of maturation marker CD11c and IFN-γ production [6]: did non modulate
Ki [7]: 246 nM
EC50 [8]: 16 nM
β-Arrestin-2 E max [8]: 97%
expression of surface activation markers CD25, CD44 and CD69 and IFN-γ production [9]: did not modulate the activation status
expression of CD11c and production of IFN-γ in human DCs [10]: only a minor but not significant

O=C(Cc1ccc(Cl)c(Cl)c1)N1CCN[C@@H]2CCC[C@@H](N3CC[C@@H](F)C3)[C@@H]21
KOR:DOR selectivity [4]: more than 100 fold
Ki [4]: 1.5 nM
anti-inflammatory effect (CD11c, IFN-γ) in DCs from KOR-deficient mice [11]: completely abrogated
EC50 [5]: 0.033 nM
expression of maturation marker CD11c and IFN-γ production [6]: significantly reduced
Ki [7]: 251 nM
EC50 [8]: 6.9 nM
β-Arrestin-2 E max [8]: 91%
expression of surface activation markers CD25, CD44 and CD69 and IFN-γ production [9]: significantly reducing
anti-inflammatory cytokine IL-10 in cell cultures ([9]; culture supernatants): significant upregulation
expression of activation markers or cytokine release in T cells from KOR-deficient mice [12]: did not result in an altered expression
expression of CD11c and production of IFN-γ in human DCs [10]: reduced

Like-named read-outs stand apart in the source and are kept apart here.
